Assay results reported in patent US12011433B2, “Mofezolac derivatives as multi-functions selective COX-1 inhibitors” (UNIVERSITÁ DEGLI STUDI DI BARI “ALDO MORO”, priority 2016, dated 2024).
pIC50: −log10 of the molar value.

Sequences of proteins named here, by UniProt entry; tags and fusion partners are left off. Residues count along the entry.
UniProt P05979, 25-600: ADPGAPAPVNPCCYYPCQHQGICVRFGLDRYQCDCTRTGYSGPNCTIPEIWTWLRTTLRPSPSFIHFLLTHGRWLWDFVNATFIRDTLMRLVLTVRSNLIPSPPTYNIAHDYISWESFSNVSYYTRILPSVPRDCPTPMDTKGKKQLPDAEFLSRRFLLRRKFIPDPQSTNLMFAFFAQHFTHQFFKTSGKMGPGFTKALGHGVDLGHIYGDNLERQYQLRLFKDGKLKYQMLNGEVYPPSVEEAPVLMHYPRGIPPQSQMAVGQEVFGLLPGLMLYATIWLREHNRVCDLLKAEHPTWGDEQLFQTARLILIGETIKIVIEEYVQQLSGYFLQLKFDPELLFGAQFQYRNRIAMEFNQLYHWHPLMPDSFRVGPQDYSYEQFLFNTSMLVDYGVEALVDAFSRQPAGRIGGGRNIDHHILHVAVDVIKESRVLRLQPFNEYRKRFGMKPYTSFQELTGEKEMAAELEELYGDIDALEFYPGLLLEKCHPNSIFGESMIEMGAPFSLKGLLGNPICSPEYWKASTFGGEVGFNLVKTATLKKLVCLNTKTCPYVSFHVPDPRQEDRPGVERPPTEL

Target: ovine COX-1 (Ovis aries (Sheep), UniProt P05979)
Assay: colorimetric COX (ovine) inhibitor screening assay kit
Assay type: biochemical
Procedure: The target compounds were evaluated for their ability to inhibit ovine COX-1 and COX-2 enzyme catalytic activity (percent inhibition at 50 mm, unless otherwise indicated). […] Enzyme inhibition was determined using a colorimetric COX (ovine) inhibitor screening assay kit (Cayman Chemicals, Ann Arbor, MI, USA) following the manufacturer's instructions. Stock solutions of test compounds were dissolved in a minimum volume of DMSO.

- pIC50: 8.10
SMILES: COc1ccc(-c2noc(CC(=O)O)c2-c2ccc(OC)cc2)cc1 [drawing 42, reference compound]
